## Antibody variant affinities, Ab-14 light chain, assay 1

Reference: Engelhart et al. 2022, doi:10.1038/s41597-022-01779-4. File: FLAb, binding data.

Target: peptide PDVDLGDISGINAS, taken from heptad repeat 2 (HR2) of SARS-CoV-2 spike.

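The starting antibody came from a phage panning campaign against this peptide. AAYL50 was designed without a model: most single CDR substitutions and a random sample of double and triple ones. The scFvs were displayed on barcoded MATa yeast, the peptide on MATalpha yeast. Binding brings cells together so that they mate, and sequencing counts the barcode pairs among the diploids. The ratio of observed to expected reads was calibrated, replicate by replicate, on BCL2-family standards whose Kd was known from biolayer interferometry. There are three technical replicates.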

Parent scFv Ab-14: VH joined to VL by a 15-residue (Gly4Ser)3 linker. Changes lie in the light chain CDRs alone.
VH: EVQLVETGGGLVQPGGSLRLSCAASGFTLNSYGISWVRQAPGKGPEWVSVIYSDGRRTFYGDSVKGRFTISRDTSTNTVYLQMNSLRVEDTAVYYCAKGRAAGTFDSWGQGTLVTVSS
VL: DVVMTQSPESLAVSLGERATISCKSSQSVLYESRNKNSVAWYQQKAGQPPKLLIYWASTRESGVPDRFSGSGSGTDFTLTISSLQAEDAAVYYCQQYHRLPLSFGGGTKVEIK

Changes read parent residue, position, new residue, counted from the first residue of the VL shown.
Values are log10 of the apparent Kd in nM; lower means stronger binding.
A mean of the replicates is given; it leaves out those without a signal.
"n.d." marks a missing value. The strain was present, yet no cells mated with the target were sequenced in that replicate, which points to weak or no binding.
In this assay the parent's reference entry averaged 0.65; its copy inside this library read 1.68.
Nonspecific signal, from three strains lacking the peptide, appeared in 18% of pairings of library AAYL50, centred on 4.19 (5% of these signals below 2.99); values are not corrected for it. Also given: how often the same scFv was detected with the empty control strains, with their mean in brackets.

changes,"log10 Kd, replicates","mean, log10 nM",empty controls
S58Q+L100H+S103K,1.21 1.29 1.22,1.24,0 of 9
S25V+N37E+P101C,1.34 1.39 1.51,1.41,4 of 9 (4.56)
S26F+E61R+S62N,3.96 n.d. n.d.,3.96,0 of 9
S25V+N37Q+Q96T,0.51 0.78 0.83,0.71,0 of 9
L30R+A40F+L102I,n.d. 4.37 4.24,4.31,1 of 9 (5.05)
L30P+T59L,0.66 0.84 0.83,0.78,3 of 9 (3.73)
A57G,1.63 1.80 1.79,1.74,2 of 9 (4.72)
N35Y+S62H+S103V,1.59 1.62 1.32,1.51,2 of 9 (3.92)
V39K+S62M+S103G,n.d. 4.51 4.04,4.28,2 of 9 (4.41)
S25R+E32F+S38C,n.d. n.d. n.d.,n.d.,2 of 9 (4.86)
N35P+A40R+S62C,n.d. n.d. n.d.,n.d.,1 of 9 (3.93)
N35M+A57D+L100S,0.81 1.01 0.78,0.87,2 of 9 (4.80)
R34V+A57V+Y97K,5.51 4.10 6.07,5.23,5 of 9 (4.15)
A57C+Y97Q+P101N,4.11 3.13 3.71,3.65,6 of 9 (4.71)
V29R+Y31S+A40E,n.d. n.d. n.d.,n.d.,0 of 9
S62Y+Q95I,n.d. n.d. n.d.,n.d.,1 of 9 (3.65)
K24V+L30H+Q96T,3.25 2.93 3.12,3.10,3 of 9 (4.36)
Q27R+W56Y+H98P,1.41 1.46 1.38,1.41,0 of 9
S26D+Q27G+V39C,n.d. 2.58 n.d.,2.58,0 of 9
S26P+S58A,1.41 1.73 1.60,1.58,0 of 9
S58G+Q96K,1.03 1.10 1.23,1.12,2 of 9 (4.69)
Q27D+V29D+R99V,1.47 1.46 1.73,1.55,2 of 9 (4.09)
N35D+W56V+P101M,n.d. n.d. n.d.,n.d.,0 of 9
Q95Y+P101L,n.d. n.d. n.d.,n.d.,0 of 9
E32S+S38E+E61I,n.d. n.d. n.d.,n.d.,1 of 9 (3.73)
Y31T+V39N+A40V,4.37 3.95 5.01,4.44,8 of 9 (4.61)
R34I+V39T+L102V,n.d. n.d. n.d.,n.d.,0 of 9
S33Y+N35H+N37T,n.d. n.d. n.d.,n.d.,0 of 9
R60L+Y97C+L102P,n.d. n.d. n.d.,n.d.,1 of 9 (5.90)
S58H+Y97P+S103I,1.66 1.85 1.97,1.83,0 of 9
P101Y,n.d. n.d. n.d.,n.d.,0 of 9
S25F+A57N+E61Q,1.66 1.80 1.77,1.74,0 of 9
V29W+N35F,1.11 1.45 2.18,1.58,1 of 9 (3.01)
S28F+L30Y+W56T,1.25 1.35 1.23,1.27,5 of 9 (4.03)
Q27Y+K36V+S58Q,1.33 1.43 1.55,1.44,1 of 9 (3.98)
A57I+H98G+P101V,n.d. n.d. n.d.,n.d.,3 of 9 (3.69)
Y31G+E32I+S103I,0.70 0.89 0.86,0.82,3 of 9 (4.16)
S38P+A40M+W56S,n.d. n.d. n.d.,n.d.,0 of 9

The last 4 entries again:

{"changes": "Q27Y+K36V+S58Q", "log10 Kd, replicates": "1.33 1.43 1.55", "mean, log10 nM": "1.44", "empty controls": "1 of 9 (3.98)"}
{"changes": "A57I+H98G+P101V", "log10 Kd, replicates": "n.d. n.d. n.d.", "mean, log10 nM": "n.d.", "empty controls": "3 of 9 (3.69)"}
{"changes": "Y31G+E32I+S103I", "log10 Kd, replicates": "0.70 0.89 0.86", "mean, log10 nM": "0.82", "empty controls": "3 of 9 (4.16)"}
{"changes": "S38P+A40M+W56S", "log10 Kd, replicates": "n.d. n.d. n.d.", "mean, log10 nM": "n.d.", "empty controls": "0 of 9"}